Among the data in PubChem BioAssay AID1509 (The Scripps Research Institute Molecular Screening Center, 2009) are activation values, retold here.

Amino acid sequences for entries named in this document (tags omitted). A change or cut given only in a name is not applied to a line headed by its entry.
UniProt O95977: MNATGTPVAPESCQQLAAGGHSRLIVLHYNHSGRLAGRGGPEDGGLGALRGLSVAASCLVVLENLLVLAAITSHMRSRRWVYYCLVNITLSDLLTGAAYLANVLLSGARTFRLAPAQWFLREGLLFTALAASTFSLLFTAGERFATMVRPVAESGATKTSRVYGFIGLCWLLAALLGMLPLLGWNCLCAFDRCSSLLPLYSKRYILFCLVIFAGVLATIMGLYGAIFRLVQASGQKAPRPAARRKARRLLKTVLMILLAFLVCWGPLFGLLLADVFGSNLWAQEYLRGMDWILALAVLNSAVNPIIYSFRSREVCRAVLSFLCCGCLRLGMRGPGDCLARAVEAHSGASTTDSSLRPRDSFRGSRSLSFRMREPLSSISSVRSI

SMILES strings stand for the structures. “And” between values parts separate entries of the source, which are not always exact repeats. Equal values may be shown once. The list shows a part of the results, in another mix than the full data. The source made the active and inactive calls. Cut-off read from the data, not from the text of the source: active = activation above about 11%; inactive = the rest.

The target of the assay is Sphingosine 1-phosphate receptor 4 (Homo sapiens) (UniProt O95977). The experiment in a line: activators of human S1P4 receptor – cell-based, primary screen (AID 1509).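 Note: 0% = DMSO vehicle and 100% = reference agonist.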 The settings on record: S1P4-expressing cell line, agonist reporter assay; at 4.98 µM; hits give high values. (In general: In a reporter assay the amount or activity of a reporter protein is the signal.)
Regarding `O=[N+]([O-])c1ccc2c(c1)nnn2O`, the activation was inactive: -0.54%.

Take `CCOP1(=S)c2c(C)nn(CCC#N)c2N=C(c2ccc(F)cc2)N1C` (centres undefined): the activation is inactive: -0.42%.

On to `Nc1ccccc1[As](=O)(O)c1ccccc1`, for which the activation was inactive: 0.08%. Under `O=C(O)COc1ccc([As](=O)(O)O)cc1[N+](=O)[O-]` stands inactive: -1.58%; under `CS(=O)(=O)c1cc([N+](=O)[O-])c2no[n+]([O-])c2c1`, inactive: -1.81%; under `O=P(Nc1nccs1)(c1ccccc1)c1nc2ccccc2s1` (centres undefined), inactive: 0.91%. Under `O=P(Nc1nccs1)(Oc1ccccc1)Oc1ccccc1` stands inactive: 1.42%; under `CCOP1(=S)c2c(C)nn(CCC#N)c2N=C(c2ccccc2F)N1C` (centres undefined), inactive: -1.26%; under `CCOP(=O)(Nc1cccc2ccccc12)OCC`, inactive: 0.67%.

With `COc1cc(C2NCCC3(OCCO3)C2(C)C)cc(OC)c1OC` (centres undefined), the activation was inactive: -0.27%.

`CCCOP(=S)(Nc1nc(N)cc(=O)[nH]1)OCCC`: the activation was inactive: -1.71%. Under `Nc1cccc2c([As](=O)(O)O)cccc12` stands inactive: -0.25%; under `Cc1ccc(NCCc2c([N+](=O)[O-])cc([N+](=O)[O-])cc2[N+](=O)[O-])cc1`, inactive: 1.17%; under `O=[As](O)(c1cccc(O)c1)c1cccc(O)c1`, inactive: 0.11%. Under `Cc1cccc(OCC(=O)OC2CN3CCC2CC3)c1` (centres undefined) stands inactive: -0.14%; under `COc1cc(C(=O)NCC2(N3CCOCC3)CCCCC2)cc(Cl)c1OC(C)C`, inactive: 0.26%; under `O=[As](O)(O)c1cccnc1`, inactive: -0.04%. Under `O=C(OC1CN2CCC1CC2)c1ccc(Cl)cc1` (centres undefined) stands inactive: 0.37%; under `CC1(CBr)Cn2c(nc3ccccc3c2=O)S1` (centres undefined), inactive: 0.86%; under `O=[As](O)(c1ccccc1Br)c1ccccc1Br`, inactive: 0.45%.

As to `CC(C)/C=N\N=C(\N)N[N+](=O)[O-]`, the activation was inactive: -1.13%. Turning to `CN(C(=O)Cc1ccc(Cl)c(Cl)c1)[C@@H]1CCCC[C@H]1N1CCCC1`, the activation is inactive: -0.2%. Turning to `CC(C)(C)C(=O)NC(Sc1ncccn1)C(Cl)(Cl)Cl` (centres undefined), the activation is inactive: 0.42%. The result for `Clc1n[nH]nc1-c1nn[nH][15n]1` reads inactive: 1.21%; that for `CCOP(=O)(Nc1ccc(C)cn1)OCC`, inactive: -0.17%. For `O=P1(Nc2ccccn2)COc2ccccc2OC1`, the activation is inactive: -0.61%. As for `O=P1(Nc2ccc(Br)cn2)COc2ccccc2OC1`, the activation is inactive: -1.18%. With `O=[As](O)(c1cccs1)c1cccs1`, the activation is inactive: -0.13%. In the case of `Cc1ccc(OCC(=O)OC2CN3CCC2CC3)cc1` (centres undefined), the activation is inactive: 0.8%. The result for `Nc1cccc([As](=O)(O)c2ccccc2)c1` reads inactive: 0.44%; that for `O=P1(Nc2ncccn2)COc2ccccc2OC1`, inactive: -0.68%; that for `O=C(/C=C/c1ccccc1)OC1CN2CCC1CC2` (centres undefined), inactive: -0.07%. As to `CN(C)C1(CNC(=O)c2ccc(S(C)(=O)=O)cc2)CCCCC1`, the activation is inactive: -0.32%. Take `CC1CCC(C(C)C)C(OP(=O)(Nc2ccccn2)c2ccccc2)C1` (centres undefined): the activation was inactive: 2.56%.

`Cc1nn(-c2ccccc2)c2c1P(=O)(N1CCOCC1)N(C)C(c1ccccc1)=N2` (centres undefined): the activation was inactive: 0.29%. With `O=[N+]([O-])c1ccc(Nc2ccc(Oc3ccc([N+](=O)[O-])cc3[N+](=O)[O-])cc2)c([N+](=O)[O-])c1`, the activation was inactive: -0.36%.

Turning to `O=P(Nc1ccccn1)(c1cccc2ccccc12)c1cccc2ccccc12`, the activation was inactive: 0.23%. `Cc1cc(SC(NC=O)C(Cl)(Cl)Cl)ncn1` (centres undefined): the activation was inactive: 2.66%. Under `CCOC(=O)Nc1cccc([As](=O)(O)O)c1` stands inactive: -0.26%. Under `Cc1cc(SC(NC(=O)c2ccccc2)C(Cl)(Cl)Cl)nc(C(C)C)n1` (centres undefined) stands inactive: 3.88%. As to `CCOC(=O)Nc1ccc([As](=O)(O)O)c(O)c1`, the activation is inactive: 0.5%. For the compound `CCC(C)N(CC(C)C)C(=S)SC(NC(C)=O)C(Cl)(Cl)Cl` (centres undefined), the activation is inactive: -0.3%.

Regarding `CCOC(=O)c1ccc(NC(=O)C(C)(CCl)SC)cc1` (centres undefined), the activation was inactive: 0.41%. As to `O=C(COc1ccccc1)OC1CN2CCC1CC2` (centres undefined), the activation is inactive: 1.92%. As to `COP1(=S)c2c(C)nn(CCC#N)c2N=C(c2ccc(F)cc2)N1C` (centres undefined), the activation is inactive: 1.03%. Under `COc1ccc(N/C(=N/P(=O)(N2CCOCC2)N2CCOCC2)N2CCOCC2)cc1` stands inactive: -0.93%.

In the case of `COc1cc(I)ccc1[As](=O)(O)O`, the activation was inactive: 1.59%.

Turning to `COc1ccc2nc(NP(=O)(c3ccccc3)c3ccccc3)sc2c1`, the activation is inactive: 0.74%.

As to `Cc1cc(=O)[nH]c(N[N+](=O)[O-])n1`, the activation was inactive: 1.05%. Under `O=C(OC1CN2CCC1CC2)C12CC3CC(CC(C3)C1)C2` (centres undefined) stands inactive: -0.22%. Under `Cc1c2c(nc3ccccc13)SC(C(Cl)Cl)C2` (centres undefined) stands inactive: 1.62%. Under `O=[N+]([O-])c1cc([N+](=O)[O-])c(-c2ccn[nH]2)s1` stands inactive: 1.22%; under `CCN(CC)C(=S)SC(NC=O)C(Cl)(Cl)Cl` (centres undefined), inactive: 1.12%. `CC(C)NC(=O)NP(=O)(Oc1ccccc1)Oc1ccccc1`: the activation was inactive: 0.9%. Under `CC(C)c1ccc(OP(=O)(Nc2ccccn2)Oc2ccccc2F)cc1` (centres undefined) stands inactive: 0.23%; under `ClCCSc1nnc(-c2cccnc2)o1`, inactive: -3.4%; under `Cc1ccc2nc3c(c(C)c2c1)CC(C(Cl)Cl)S3` (centres undefined), inactive: 1.64%. Consider `Cc1ccc(OP(=O)(Nc2ccc([N+](=O)[O-])cn2)Oc2ccc(C)cc2)cc1`, for which the activation is inactive: 0.85%. Under `O=[As](O)(c1ccc(O)cc1)c1ccccc1O` stands inactive: 1.07%; under `C[As](=O)(O)c1cccc(C(=O)O)c1`, inactive: -1.48%. In the case of `CCN(N=Nc1nonc1N)c1nonc1N`, the activation was inactive: 1.48%. The result for `Nc1cccc2ccc([As](=O)(O)O)cc12` reads inactive: -0.23%. The result for `Cc1ccc(NP(=O)(Oc2ccccc2F)Oc2ccccc2F)nc1` reads inactive: 0.7%; that for `CCOP(=O)(Nc1ccccc1)OCC`, inactive: -0.42% and inactive: 1.33%.

On to `Cc1cc(SC(NC(=O)c2ccc(F)cc2)C(Cl)(Cl)Cl)ncn1` (centres undefined), for which the activation was inactive: 1.17%. Take `O=C(O)c1ccccc1[As](=O)(O)O`: the activation is inactive: 0.51%. Under `CC(=O)Nc1ccc([As](=O)(O)O)cc1` stands inactive: 0.31%; under `O=P(Nc1nc2ccc(Cl)cc2s1)(c1ccccc1)c1ccccc1`, inactive: 1.36%; under `CC(C)CC(=O)NC(Sc1ccc(Cl)cc1)C(Cl)(Cl)Cl` (centres undefined), inactive: -0.3%. Under `Nc1cc(N)c2nonc2c1[N+](=O)[O-]` stands inactive: 0.34%; under `Cc1c2non([O-])c-2c(C)[n+](=O)[n+]1[O-]`, inactive: 0.59%; under `O=C(NC(Sc1ccncn1)C(Cl)(Cl)Cl)c1ccccc1` (centres undefined), inactive: -0.26%. For `Oc1ccccc1CNc1ccccn1`, the activation is inactive: -0.02%. Under `Cc1ccc(OP(=O)(Nc2nccs2)Oc2ccc(C)cc2)cc1` stands inactive: -1.18%; under `COc1ccccc1OP(=O)(Nc1ccc(C)cn1)Oc1ccccc1OC`, inactive: -1.44%. The result for `Clc1ccc(Cl)c(NC2=NCC(CBr)S2)c1` (centres undefined) reads inactive: 4.63%; that for `CN1CCCC(OC(=O)C(c2ccccc2)c2ccccc2)C1` (centres undefined), inactive: -1.47%; that for `NC(=O)c1cc([N+](=O)[O-])cc([N+](=O)[O-])c1N`, inactive: 0.5%.

In the case of `Cc1ccc(N/C(=N/P(=O)(N2CCOCC2)N2CCOCC2)N2CCOCC2)cc1`, the activation was inactive: 0.11%. The result for `CN(C)C(=O)OCCc1n(C)cc[n+]1C` reads inactive: 1.52%. Turning to `CC(C)=N/N=C(\N)N[N+](=O)[O-]`, the activation is inactive: -0.35%. Consider `CC1CCN(C(=O)Oc2c(Cl)cc(Cl)c3cccnc23)CC1`, for which the activation was inactive: 0.38%. The result for `C[N+]1=C2C=CC=CC=C2SC12C([N+](=O)[O-])=CC([N+](=O)[O-])=C[C-]2[N+](=O)[O-]` (centres undefined) reads inactive: -0.74%; that for `Nc1ccc([As](=O)(O)c2ccc(N)cc2)cc1`, inactive: 0.51%; that for `CCN(/C(=N/P(=O)(N1CCOCC1)N1CCOCC1)N1CCOCC1)c1ccc(OC)cc1`, inactive: -0.76%. Under `O=[N+]([O-])c1cccc2n[nH]nc12` stands inactive: 0.14%; under `CC(=O)N1C2C3N(C(C)=O)C1C1N(C(C)=O)C(C(N1C(C)=O)N3C(C)=O)N2C(C)=O`, inactive: -1.14%. In the case of `CCc1nc2c(n1)c1c(non1O)c1c2no[n+]1[O-]`, the activation was inactive: -1.64%. The result for `O=[N+]([O-])c1cc([N+](=O)[O-])c(CCNc2ccccc2)c([N+](=O)[O-])c1` reads inactive: 0.88%. Consider `Cc1ccc(NP(=O)(Oc2ccccc2)Oc2ccccc2)nc1`, for which the activation was inactive: 0.84%.

For the compound `COc1ccc(C2=NCC(CBr)S2)cc1` (centres undefined), the activation was inactive: -0.79%.

For the compound `O=[N+]([O-])c1cccc(NC2=NCC(CBr)S2)c1` (centres undefined), the activation was inactive: 0.03%.

For the compound `O=C(O)CNc1ccc([As](=O)(O)O)cc1`, the activation is inactive: -1.41%. Consider `CC(C)(C)C(=O)NC(Sc1ccncn1)C(Cl)(Cl)Cl` (centres undefined), for which the activation was inactive: -1.6%.

In the case of `O=[N+]([O-])c1ncn(CCn2ncnc2[N+](=O)[O-])n1`, the activation is inactive: 1.45%.

With `O=C(Nc1cc([As](=O)(O)O)ccc1O)c1ccccc1`, the activation was inactive: 1.51%. The result for `Nc1ccc([As](=O)(O)c2ccc([N+](=O)[O-])cc2)cc1` reads inactive: -0.53%. Under `C(Cc1nn[nH]n1)Cc1nn[nH]n1` stands inactive: 0.58%; under `O=C(OC1CN2CCC1CC2)c1cccc(Cl)c1` (centres undefined), inactive: 0.33%.

For `O=[N+]([O-])c1ncn(CCn2cnc([N+](=O)[O-])n2)n1`, the activation is inactive: -0.26%. The result for `CC(=O)NC(SC(=S)N(C)C)C(Cl)(Cl)Cl` (centres undefined) reads inactive: 3.18%; that for `O=[As](O)(c1ccccc1)c1ccc(O)cc1`, inactive: 1.64%; that for `O=P(Nc1nc2ccccc2s1)(c1ccccc1)c1ccccc1`, inactive: -0.6%. Under `O=P(Nc1ccccn1)(c1ccc(Br)cc1)c1ccc(Br)cc1` stands inactive: -0.28%.
